Article PMC10806771 (Chemical Science, 2023)

Assays:
HER2 = conditions: versus Kadcyla; cited from earlier work
[1] = tested on: SK-BR-3 (HER2-positive) cells; assay: Cell viability assay; format: cell-based, human; conditions: 72 h; CellTiter-Glo; triplicate

Substance | Patient survival (HER2) | IC50 [1] [nM]
Enhertu: ADC targeting HER2, Deruxtecan conjugated to Trastuzumab | improves patient survival significantly compared to its predecessor Kadcyla | –
T-DM1: ADC purchased from Roche | – | 145
Tmab-VC-PAB-MMAE: trastuzumab ADC made by site-specific Fc-III-L6Orn conjugation, DAR = 1.91 | – | 258
Tmab-Vedotin: trastuzumab with maleimide MMAE, conjugation via cysteine, DAR = 3.28 | – | 126
